“Also recorded” adds a separate entry of the source.
Tests used:
[1] = system: H441; assay: WST-1 cell viability assay; conditions: H441 lung cancer cell line
[2] = system: H1975; assay: WST-1 cell viability assay
[3] = system: Capan-2; assay: MTT cell proliferation assay
[4] = system: A549; assay: WST-1 cell viability, Ctx in combination with PI3K-Akt, Src or Raf inhibitor; format: cell-based; conditions: 48 hours
[5] = system: HCC44; assay: WST-1 cell viability assay; conditions: HCC44 lung cancer cell line
[6] = system: HCC44; assay: WST-1 cell viability, Ctx in combination with PI3K-Akt, Src or Raf inhibitor; format: cell-based; conditions: 48 hours
[7] = system: PANC-1; assay: MTT cell proliferation assay
[8] = system: HCC44; assay: WST-1 cell viability after Ctx treatment of siRNA-treated cells; format: cell-based; conditions: Ctx 2 μM, 48 hours
[9] = system: A549; assay: as above; format: cell-based; conditions: Ctx 2 μM, 48 hours
[10] = system: SK-LU-1; assay: WST-1 cell viability assay; conditions: SK-LU-1 lung cancer cell line
[11] = system: Miapaca-2; assay: MTT cell proliferation assay
[12] = system: AsPC-1; assay: Annexin V-FITC apoptosis assay (FACS); conditions: AsPC-1 (Ctx^S); 4 μM, 48 hours
[13] = system: Calu-3; assay: WST-1 cell viability assay
[14] = system: H460; assay: WST-1 cell viability assay; conditions: H460 lung cancer cell line
[15] = system: Miapaca-2; assay: Annexin V-FITC apoptosis assay (FACS); conditions: Miapaca-2 (Ctx^S); 4 μM, 48 hours
[16] = system: AsPC-1; assay: MTT cell proliferation assay
[17] = system: A549; assay: WST-1 cell viability assay; conditions: A549 lung cancer cell line
[18] = system: Ctx^R PANC-1 xenograft; assay: In vivo tumor growth inhibition, xenograft; conditions: intravenous, compared to the control PBS
[19] = system: BxPC-3 and PANC-1 cell lines; assay: MTT cell viability, Ctx in combination with PI3K-Akt, Src or Raf inhibitor; format: cell-based; conditions: 72 hours
Experimental: Then, cell viability was analyzed by MTT assay.

[20] = system: H358; assay: WST-1 cell viability assay; conditions: H358 lung cancer cell line
[21] = system: H1299; assay: WST-1 cell viability assay; conditions: H1299 lung cancer cell line
[22] = system: H522; assay: WST-1 cell viability assay; conditions: H522 lung cancer cell line
[23] = system: BxPC-3; assay: MTT cell proliferation assay
[24] = Mouse weight during xenograft experiments; conditions: BxPC-3, PANC-1 and AsPC-1 xenograft mice; compared to PBS
[25] = system: HCC2108; assay: WST-1 cell viability assay; conditions: HCC2108 lung cancer cell line
[26] = system: Ctx^R BxPC-3 xenograft; assay: In vivo tumor growth inhibition, xenograft; conditions: intravenous, compared to the control PBS
[27] = system: H2009; assay: WST-1 cell viability assay; conditions: H2009 lung cancer cell line
[28] = system: Ctx^R pancreatic cancer cell lines; assay: MTT cell proliferation after NRP1, integrin-β1 or cMet siRNA; conditions: 2 μM, 48 hours
[29] = system: Calu-1; assay: WST-1 cell viability assay; conditions: Calu-1 lung cancer cell line
[30] = system: Ctx^R cell lines (BxPC-3, PANC-1 and SW1990); assay: MTT cell viability after Ctx treatment of integrin β1 siRNA-treated cells; format: cell-based; conditions: integrin β1 siRNA 100 nM; Ctx 2 μM, 48 hours
[31] = system: SW1990; assay: MTT cell proliferation assay; conditions: SW1990 pancreatic cancer cell line
[32] = 5, 2 and 1 μM SU6656 with 2 μM Ctx
[33] = 5, 2 and 1 μM sorafenib with 2 μM Ctx
[34] = 50, 20 and 10 μM LY294002 with 2 μM Ctx

Substance: cetuximab [Ctx]
- Responsiveness to Cetuximab [1]: Resistant
- cell growth inhibitory activity (WST-1) ([2]; H1975, NRP1-expressing, 0, 1, 2, and 4 μM, 48 hours): showed the same inhibitory activity against cell growth
- Responsiveness to Cetuximab ([2]; H1975 lung cancer cell line): Sensitive
- cell growth inhibition (MTT) ([3]; Capan-2 (Ctx^R), 0, 1, 2, 4 μM twice at 48-hour intervals, total 96 hours): showed cell growth inhibition, unlike Ctx
- Responsiveness to Cetuximab ([3]; Capan-2 pancreatic cancer cell line): Resistant
- resistance to Ctx when phosphorylation of Src is inhibited [4, 32]: could overcome resistance to Ctx
- resistance to Ctx when phosphorylation of Raf is inhibited [4, 33]: could not overcome resistance to Ctx
- resistance to Ctx when phosphorylation of Akt is inhibited [4, 34]: could overcome resistance to Ctx
- Responsiveness to Cetuximab [5]: Resistant
- resistance to Ctx when phosphorylation of Src is inhibited [6, 32]: could overcome resistance to Ctx
- resistance to Ctx when phosphorylation of Raf is inhibited [6, 33]: could not overcome resistance to Ctx
- resistance to Ctx when phosphorylation of Akt is inhibited [6, 34]: could overcome resistance to Ctx
- cell growth inhibition (MTT) ([7]; PANC-1 (Ctx^R), 0, 1, 2, 4 μM twice at 48-hour intervals, total 96 hours): showed cell growth inhibition, unlike Ctx
- Responsiveness to Cetuximab ([7]; PANC-1 pancreatic cancer cell line): Resistant
- resistance to Ctx when NRP1 expression is inhibited ([8]; NRP1 siRNA 100 nM): overcame resistance to Ctx; also recorded: could overcome resistance to Ctx
- resistance to Ctx when TGFβ2 expression is inhibited ([8]; TGFβ2 siRNA 100 nM): could not overcome resistance to Ctx
- resistance to Ctx when VEGFR1 expression is inhibited ([8]; VEGFR1 siRNA 100 nM): could not overcome resistance to Ctx
- resistance to Ctx when cMet expression is inhibited ([8]; cMet siRNA 100 nM): could not overcome resistance to Ctx
- resistance to Ctx when integrin β1 expression is inhibited ([8]; integrin β1 siRNA 100 nM): could not overcome resistance to Ctx
- resistance to Ctx when integrin β3 expression is inhibited ([8]; integrin β3 siRNA 100 nM): overcame resistance to Ctx; also recorded: could overcome resistance to Ctx
- resistance to Ctx when NRP1 expression is inhibited ([9]; NRP1 siRNA 100 nM): overcame resistance to Ctx; also recorded: could overcome resistance to Ctx
- resistance to Ctx when TGFβ2 expression is inhibited ([9]; TGFβ2 siRNA 100 nM): could not overcome resistance to Ctx
- resistance to Ctx when VEGFR1 expression is inhibited ([9]; VEGFR1 siRNA 100 nM): could not overcome resistance to Ctx
- resistance to Ctx when cMet expression is inhibited ([9]; cMet siRNA 100 nM): could not overcome resistance to Ctx
- resistance to Ctx when integrin β1 expression is inhibited ([9]; integrin β1 siRNA 100 nM): could not overcome resistance to Ctx
- resistance to Ctx when integrin β3 expression is inhibited ([9]; integrin β3 siRNA 100 nM): overcame resistance to Ctx; also recorded: could overcome resistance to Ctx
- Responsiveness to Cetuximab [10]: Resistant
- cell growth inhibition (MTT) ([11]; Miapaca-2 (Ctx^S), 0, 1, 2, 4 μM twice at 48-hour intervals, total 96 hours): showed the same cell growth inhibitory ability
- Responsiveness to Cetuximab ([11]; Miapaca-2 pancreatic cancer cell line): Sensitive
- apoptosis (annexin V-FITC) [12]: induced apoptosis in the same manner
- cell growth inhibitory activity (WST-1) ([13]; Calu-3, NRP1-expressing, 0, 1, 2, and 4 μM, 48 hours): showed the same inhibitory activity against cell growth
- Responsiveness to Cetuximab ([13]; Calu-3 lung cancer cell line): Sensitive
- Responsiveness to Cetuximab [14]: Resistant
- apoptosis (annexin V-FITC) [15]: induced apoptosis in the same manner
- cell growth inhibition (MTT) ([16]; AsPC-1 (Ctx^S), 0, 1, 2, 4 μM twice at 48-hour intervals, total 96 hours): showed the same cell growth inhibitory ability
- Responsiveness to Cetuximab ([16]; AsPC-1 pancreatic cancer cell line): Sensitive
- Responsiveness to Cetuximab [17]: Resistant
- tumor growth (tumor volume, tumor weight) [18]: showed resistance
- resistance to Ctx (cell viability) when phosphorylation of Raf is inhibited ([19]; 2.5 μM sorafenib (Raf inhibitor) with 2 μM Ctx): resistance to Ctx could not be overcome
- resistance to Ctx (cell viability) when phosphorylation of Src is inhibited ([19]; 5 μM SU6656 (Src inhibitor) with 2 μM Ctx): could overcome resistance to Ctx
- resistance to Ctx (cell viability) when phosphorylation of Akt is inhibited ([19]; 50 μM LY294002 (PI3K-Akt inhibitor) with 2 μM Ctx): could overcome resistance to Ctx
- Responsiveness to Cetuximab [20]: Resistant
- Responsiveness to Cetuximab [21]: Resistant
- Responsiveness to Cetuximab [22]: showing resistance to Ctx due to non-expression of EGFR
- Responsiveness to Cetuximab ([22]; listed as Cetuximab): Resistant
- cell growth inhibition (MTT) ([23]; BxPC-3 (Ctx^R), 0, 1, 2, 4 μM twice at 48-hour intervals, total 96 hours): showed cell growth inhibition, unlike Ctx
- Responsiveness to Cetuximab ([23]; BxPC-3 pancreatic cancer cell line): Resistant
- change in the weight of the mice (toxicity) [24]: little or no change in the weight of the mice
- Responsiveness to Cetuximab [25]: Resistant
- tumor growth (tumor volume, tumor weight) [26]: showed resistance
- Responsiveness to Cetuximab [27]: Resistant
- cell growth inhibitory ability when expression of NRP1 is inhibited ([28]; NRP1 siRNA): resistance to Ctx still appeared
- resistance to Ctx when cMet expression is inhibited ([28]; cMet siRNA): could not overcome resistance to Ctx
- resistance to Ctx when expression of integrin β1 is inhibited ([28]; integrin β1 siRNA): resistance to Ctx was overcome
- Responsiveness to Cetuximab [29]: Resistant
- resistance to Ctx (cell viability) when integrin β1 expression is inhibited [30]: could overcome resistance to Ctx
- Responsiveness to Cetuximab [31]: Resistant
